{"source": "patent US11357829B2", "about": "“Systems, compositions and methods for treating diabetes” (Vanderbilt University, priority 2017, dated 2022)", "tested_on": "conscious subjects (canine)", "test": "IV pancreatic clamp, insulin-induced hypoglycemia, glucagon raised proportionally vs kept basal (subjects 1, 2, 5, 6)", "settings": "mean of 4 hypoglycemic subjects, glucagon increased proportionally (I/G 3-5)", "data": [{"smiles": "CSCC[C@H](NC(=O)[C@H](CC(C)C)NC(=O)[C@H](Cc1c[nH]c2ccccc12)NC(=O)[C@H](CCC(N)=O)NC(=O)[C@@H](NC(=O)[C@H](Cc1ccccc1)NC(=O)[C@H](CC(=O)O)NC(=O)[C@H](CCC(N)=O)NC(=O)[C@H](C)NC(=O)[C@H](CCCN=C(N)N)NC(=O)[C@H](CCCN=C(N)N)NC(=O)[C@H](CO)NC(=O)[C@H](CC(=O)O)NC(=O)[C@H](CC(C)C)NC(=O)[C@H](Cc1ccc(O)cc1)NC(=O)[C@H](CCCCN)NC(=O)[C@H](CO)NC(=O)[C@H](Cc1ccc(O)cc1)NC(=O)[C@H](CC(=O)O)NC(=O)[C@H](CO)NC(=O)[C@@H](NC(=O)[C@H](Cc1ccccc1)NC(=O)[C@@H](NC(=O)CNC(=O)[C@H](CCC(N)=O)NC(=O)[C@H](CO)NC(=O)[C@@H](N)Cc1c[nH]cn1)[C@@H](C)O)[C@@H](C)O)C(C)C)C(=O)N[C@@H](CC(N)=O)C(=O)N[C@H](C(=O)O)[C@@H](C)O", "note": "[glucagon]", "values": [{"measurement": "increase in glucagon (plasma)", "result": "approximately 180 pg/ml"}]}]}
